Patent US20210128736A1, “STEREOCOMPLEX OF OLIGOLACTIC ACID CONJUGATES IN MICELLES FOR IMPROVED PHYSICAL STABILITY AND ENHANCED ANTITUMOR EFFICACY” (Wisconsin Alumni Research Foundation, priority 2018, published 2021)

Conditions: for Stability: loaded PEG-b-PLA micelles, 1.0 mg prodrug and 10.0 mg PEG4000-b-PLA2200, dispersed in MilliQ water at 25° C.; for physical stability: time to drug precipitation: loaded within PEG-b-PLA micelles

Row | Substance | Stability [h] | physical stability: time to drug precipitation [h]
1 | oligo(L-lactic acid)-gemcitabine [o(LLA)6-GEM] | <24 | < 24
2 | oligo(L-lactic acid)-gemcitabine [o(LLA)10-GEM] | <1 | < 1
